Assay results published in patent publication US20090155270A1, “CASPASE INHIBITORS, […] 3 INHIBITORS, FOR THE TREATMENT OF INFLUENZA” (priority 2003, published 2009).

System: caspase activity (cleavage of the protein PARP)
Assay type: cell-based

Substance: XIAP
- inhibition of the caspase activity, measured by the reduced cleavage of the protein PARP: 40-50%
